# Biological target: Oxysterols receptor LXR-alpha (Homo sapiens) (UniProt Q13133)
# Protein sequences, listed by entry. Tags and fused reporters are not part of them.
# UniProt Q13133, whole entry: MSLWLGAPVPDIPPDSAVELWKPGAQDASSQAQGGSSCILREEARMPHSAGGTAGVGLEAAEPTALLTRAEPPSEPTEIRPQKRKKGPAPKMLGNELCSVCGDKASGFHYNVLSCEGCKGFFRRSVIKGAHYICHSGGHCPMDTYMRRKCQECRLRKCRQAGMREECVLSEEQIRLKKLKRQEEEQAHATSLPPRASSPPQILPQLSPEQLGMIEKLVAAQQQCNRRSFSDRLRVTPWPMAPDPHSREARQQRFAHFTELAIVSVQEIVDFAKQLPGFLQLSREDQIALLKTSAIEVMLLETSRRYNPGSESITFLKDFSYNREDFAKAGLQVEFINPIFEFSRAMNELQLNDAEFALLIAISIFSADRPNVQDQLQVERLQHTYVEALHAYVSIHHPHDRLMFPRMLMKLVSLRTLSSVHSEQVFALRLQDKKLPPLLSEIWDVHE
# Assay: Agonist activity at human GAL4-fused LXRalpha LBD expressed in human HEK293T cells cotransfected with pFR-Luc and pRL-SV40 assessed as increase in luciferase activity at 1 uM incubated for 16 hrs by Dual-Glo luciferase assay relative to control
# Type: cell-based
smiles,measurement,value
Cc1cc(COc2ccc(C)c3c2CCC3)ccc1CCC(=O)O,Activity,3%
